In PubChem BioAssay AID1511 (Johns Hopkins Ion Channel Center, 2009):
This is a selection; strong and weak results do not stand in their true shares. Active and inactive are the calls of the source.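 How the source made its calls: active means activation above the mean of controls blocked by dofetilide plus 5 SD; inactive means the rest.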

By UniProt entry, the sequences of proteins in these tests, tags left out.
UniProt Q12809, whole entry: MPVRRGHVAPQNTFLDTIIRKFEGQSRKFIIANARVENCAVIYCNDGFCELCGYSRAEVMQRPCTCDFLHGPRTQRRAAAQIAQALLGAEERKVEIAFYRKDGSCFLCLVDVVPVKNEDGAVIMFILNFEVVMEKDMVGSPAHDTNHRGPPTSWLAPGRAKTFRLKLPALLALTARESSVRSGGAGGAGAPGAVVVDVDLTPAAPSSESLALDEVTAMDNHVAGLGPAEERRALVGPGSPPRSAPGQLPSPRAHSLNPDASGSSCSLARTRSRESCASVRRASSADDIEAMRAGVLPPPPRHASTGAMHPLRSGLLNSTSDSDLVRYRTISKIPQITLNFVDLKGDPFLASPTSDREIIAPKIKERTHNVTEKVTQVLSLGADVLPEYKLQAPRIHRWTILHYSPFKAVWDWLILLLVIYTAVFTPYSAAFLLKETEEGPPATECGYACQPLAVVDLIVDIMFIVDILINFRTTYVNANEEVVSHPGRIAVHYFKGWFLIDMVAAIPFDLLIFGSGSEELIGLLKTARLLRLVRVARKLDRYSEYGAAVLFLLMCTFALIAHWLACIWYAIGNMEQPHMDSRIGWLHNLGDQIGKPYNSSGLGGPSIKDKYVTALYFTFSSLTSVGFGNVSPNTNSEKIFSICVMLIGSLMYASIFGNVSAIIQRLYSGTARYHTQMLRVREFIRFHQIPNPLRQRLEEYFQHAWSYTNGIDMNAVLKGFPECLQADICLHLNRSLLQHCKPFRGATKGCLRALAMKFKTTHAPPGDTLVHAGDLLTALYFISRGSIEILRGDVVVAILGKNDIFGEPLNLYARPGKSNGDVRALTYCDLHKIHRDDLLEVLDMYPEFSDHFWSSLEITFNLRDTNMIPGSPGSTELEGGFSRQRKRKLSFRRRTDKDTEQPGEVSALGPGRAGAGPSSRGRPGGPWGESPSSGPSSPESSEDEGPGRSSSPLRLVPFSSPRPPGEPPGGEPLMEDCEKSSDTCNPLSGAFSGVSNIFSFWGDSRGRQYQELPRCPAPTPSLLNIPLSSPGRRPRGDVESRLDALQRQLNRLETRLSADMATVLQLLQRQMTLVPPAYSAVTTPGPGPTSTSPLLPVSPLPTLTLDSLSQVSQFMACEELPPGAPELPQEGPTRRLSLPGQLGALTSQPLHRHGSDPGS

Target: Voltage-gated inwardly rectifying potassium channel KCNH2 (Homo sapiens) (UniProt Q12809)
Assay: PubChem AID 1511;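 further: thallium influx through hERG after potassium depolarization seen as dye fluorescence rise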
Details: CHO-hERG, FluxOR thallium flux, dofetilide IC70 present; at 10 µM; stronger effect = higher value

| Compound | activation (rescue from dofetilide block), less the hit threshold |
| --- | --- |
| O=C(NCC1(N2CCCCC2)CCCCC1)c1cccc(C(F)(F)F)c1 | inactive: -8.42% |
| CN1CCN(CCOC(=O)C(O)(c2ccccc2)c2ccccc2)CC1 | inactive: -8.34% |
| COc1ccc(NC2CCN(C(=O)OC(C)(C)C)CC2)cc1 | inactive: -2.76% |
| COc1cc(C(=O)NCC2(N3CCCCC3)CCCCC2)ccc1OC(F)F | inactive: -5.44% |
| O=C(NCC1(N2CCOCC2)CCCCC1)c1cc(=O)[nH]c2ccccc12 | inactive: -8.25% |
| O=C(NCC1(N2CCCCC2)CCCCC1)c1ccc(OC(F)F)cc1 | inactive: -8.85% |
| O=C(NCC1(N2CCCCC2)CCCCC1)c1cccc([N+](=O)[O-])c1 | inactive: -19% |
| CCN1CCC(Nc2ccc(Cl)cc2)CC1 | inactive: -6.93% |
| N#CC1(Nc2ccccc2)CCN(CCc2ccccc2)CC1 | inactive: -3.57% |
| CN1CCC(Nc2cccc(F)c2)CC1 | inactive: -3.84% |
| CCCOc1ccc(C(=O)NCC2(N(C)C)CCCCC2)cc1OC | inactive: -5.93% |
| COc1ccc(CN(CCCl)CCCl)cc1Cl | inactive: -9.95% |
| CN(C)c1cccc(C(=O)NCC2(N3CCCCC3)CCCCC2)c1 | inactive: -8.43% |
| CC(C)c1ccc(NC2CCN(C(=O)OC(C)(C)C)CC2)cc1 | inactive: -9.57% |
| COc1cc(OC)c(C(=O)NCC2(N(C)C)CCCCC2)cc1OC | inactive: -7.03% |
| O=C(NCC1(N2CCOCC2)CCCCC1)c1cc2ccccc2o1 | inactive: -9.69% |
| O=C(NCC1(N2CCCCC2)CCCCC1)c1ccc(Cl)nc1 | inactive: -10.8% |
| Cc1cc(C)cc(N(C(=O)c2ccccc2)C2CCN(C(=O)OC(C)(C)C)CC2)c1 | inactive: -12.8% |
| CCOC(=O)N1CCC(Nc2ccc(OC)cc2)CC1 | active: 4.85% |
| N#CC1(Nc2ccccc2)CCN(Cc2ccccc2)CC1 | inactive: -3.63% |

| Compound | activation (rescue from dofetilide block), less the hit threshold |
| --- | --- |
| O=C(OC1CN2CCC1CC2)C1c2ccccc2Oc2ccccc21 (centres undefined) | inactive: -4.59% |
| O=C(NCC1(N2CCCCC2)CCCCC1)c1ccc(=O)[nH]c1 | inactive: -13.1% |
| O=C(NCC1(N2CCCCC2)CCCCC1)c1cccs1 | inactive: -7.07% |
| COc1ccc(C(=O)NCC2(N3CCCCC3)CCCCC2)cc1 | inactive: -3.05% |
| CC(C)(C)OC(=O)N1CCC(N(C(=O)c2ccccc2)c2ccc(F)cc2)CC1 | inactive: -10.9% |
| COc1ccc(C(=O)NCC2(N3CCCCC3)CCCCC2)c(OC)c1OC | inactive: -7.71% |
| CSc1ccccc1C(=O)NCC1(N2CCCCC2)CCCCC1 | inactive: -5.3% |
| CCOC(=O)N1CCC(Nc2cccc(C)c2)CC1 | inactive: -7.8% |
| COc1cc(C(=O)NCC2(N(C)C)CCCCC2)ccc1OC(F)F | inactive: -6.75% |
| Cc1ccc(OCC(C)C)c(CN(CCCl)CCCl)c1 | inactive: -3.48% |
| CCOc1ccc(C)cc1CN(CCCl)CCCl | inactive: -8.15% |
| O=C(NCC1(N2CCCCC2)CCCCC1)c1ccc(F)cc1 | inactive: -7.03% |
| COc1ccc(NC2CCN(CCc3ccccc3)CC2)c(OC)c1 | inactive: -7.89% |
| CCOC(=O)N1CCC(Nc2ccc(F)cc2)CC1 | inactive: -5.44% |
| CCN1CCC(Nc2cccc(F)c2)CC1 | inactive: -5% |
| CN(C)c1ccc(C(=O)NCC2(N3CCCCC3)CCCCC2)cc1 | inactive: -12.7% |
| COc1cc(OC)cc(C(=O)NCC2(N3CCCCC3)CCCCC2)c1 | inactive: -7.23% |
| Cc1ccc(C(=O)NCC2(N3CCCCC3)CCCCC2)o1 | inactive: -7.74% |
| Fc1ccccc1NC1CCN(Cc2ccccc2)CC1 | inactive: -3.6% |
| CCC(CO)(C(=O)OC1CN2CCC1CC2)c1ccccc1 (centres undefined) | inactive: 0.33% |

| Compound | activation (rescue from dofetilide block), less the hit threshold |
| --- | --- |
| COc1cc(OC)cc(C(=O)NCC2(N3CCOCC3)CCCCC2)c1 | inactive: -12.2% |
| COc1cccc(C(=O)N(c2cc(C)cc(C)c2)C2CCN(C(=O)OC(C)(C)C)CC2)c1 | inactive: -2.91% |
| CCCOc1ccc(C)cc1CN(CCCl)CCCl | inactive: -12.8% |
| CN1CCC(Nc2ccc(Cl)cc2)CC1 | inactive: -10.8% |
| CCOc1ncccc1C(=O)NCC1(N2CCOCC2)CCCCC1 | inactive: -13.3% |
| CN1CCC(Nc2ccc(F)c(Cl)c2)CC1 | inactive: 0.28% |
| CCCOc1ccc(C(=O)NCC2(N(C)C)CCCCC2)cc1 | inactive: -10.9% |
| CC(C)(C)OC(=O)N1CCC(Nc2ccccc2)CC1 | inactive: -18.4% |
| O=C(O)C1(Nc2ccccc2)CCN(Cc2ccccc2)CC1 | inactive: -4.36% |
| N/C(=N\O)c1c(N)no[n+]1[O-] | inactive: -11.5% |
| CCOC(=O)N1CCC(Nc2ccc(C)cc2)CC1 | inactive: -1.45% |
| CCc1cc(C(=O)NCC2(N3CCCCC3)CCCCC2)sc1C | inactive: -10.4% |
| O=C(OC1CN2CCC1CC2)C1c2ccccc2C=Cc2ccccc21 (centres undefined) | inactive: -6.03% |
| COc1ccc(C(=O)NCC2(N3CCOCC3)CCCCC2)cc1OC | inactive: -24% |
| c1ccc(CN2CCC(Nc3ccccc3)CC2)cc1 | inactive: 0.58% |
| CCCN1CCC(Nc2cc(OC)cc(OC)c2)CC1 | inactive: -6.5% |
| CN(C)C1(CNC(=O)c2cccc(C#N)c2)CCCCC1 | inactive: -3.06% |
| CC(C)(C)OC(=O)N1CCC(N(C(=O)c2ccccc2)c2ccc(Cl)cc2)CC1 | inactive: -11.3% |
| N#Cc1ccc(C(=O)NCC2(N3CCCCC3)CCCCC2)cc1 | inactive: -3.92% |
